Literature values in US12240813B2, “Deuterated tryptamine derivatives and methods of use” (priority 2020, dated 2025).

Chains of the proteins cited; added tags and fusions are not shown.
UniProt P41595, whole entry: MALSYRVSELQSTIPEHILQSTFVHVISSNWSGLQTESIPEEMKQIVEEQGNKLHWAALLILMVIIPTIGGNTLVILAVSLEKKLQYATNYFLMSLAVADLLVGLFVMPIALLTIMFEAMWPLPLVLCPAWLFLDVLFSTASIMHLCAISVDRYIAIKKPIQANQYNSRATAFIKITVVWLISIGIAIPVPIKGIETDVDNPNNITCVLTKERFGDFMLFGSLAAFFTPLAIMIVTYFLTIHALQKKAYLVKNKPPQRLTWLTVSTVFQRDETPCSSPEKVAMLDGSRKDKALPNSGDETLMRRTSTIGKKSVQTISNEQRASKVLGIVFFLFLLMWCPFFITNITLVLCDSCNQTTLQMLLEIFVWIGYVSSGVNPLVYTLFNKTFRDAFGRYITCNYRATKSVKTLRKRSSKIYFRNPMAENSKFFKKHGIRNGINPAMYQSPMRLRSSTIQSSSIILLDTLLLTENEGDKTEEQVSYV

Molecular target: T1, 5-HT2B receptor (Homo sapiens, UniProt P41595)
T1 construct: expressed in transfected cells; host or cells: CHO-K1 or HEK293
Conditions: agonist-labeled, PI data PDSP certified or from literature; cited from earlier work

## CN(C)CCc1c[nH]c2cccc(O)c12 [PI, psilocin]
  Ki: 5 nM
